Reference: patent publication US20160347810A1 (AFASCI, published 2016)

By UniProt entry, the sequences of proteins in these tests, tags left out. Residues count along the entry.
UniProt Q16602, 23-461, chain 1 of 2: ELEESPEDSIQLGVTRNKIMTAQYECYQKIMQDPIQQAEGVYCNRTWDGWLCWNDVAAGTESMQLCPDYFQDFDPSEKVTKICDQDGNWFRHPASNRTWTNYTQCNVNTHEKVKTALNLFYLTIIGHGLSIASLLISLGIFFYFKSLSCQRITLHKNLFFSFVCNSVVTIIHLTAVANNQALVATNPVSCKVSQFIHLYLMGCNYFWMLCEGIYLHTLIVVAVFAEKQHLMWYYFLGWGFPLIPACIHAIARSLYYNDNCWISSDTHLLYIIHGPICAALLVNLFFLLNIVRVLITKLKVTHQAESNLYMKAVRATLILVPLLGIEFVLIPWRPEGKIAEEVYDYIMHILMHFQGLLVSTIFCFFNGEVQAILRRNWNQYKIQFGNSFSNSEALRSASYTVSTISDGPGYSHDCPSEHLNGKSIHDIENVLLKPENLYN
human calcitonin CGRP1 (CGRP1) membrane, UniProt O60894, 27-148, chain 2 of 2: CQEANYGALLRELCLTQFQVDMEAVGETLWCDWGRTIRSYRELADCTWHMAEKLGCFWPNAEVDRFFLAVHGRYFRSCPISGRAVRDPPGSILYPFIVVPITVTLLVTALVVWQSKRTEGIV

Molecular target: T1, human calcitonin CGRP1 (CGRP1) membrane (human, UniProt Q16602 23-461; O60894 27-148)
T1 construct: whole, on cells; Purchased membrane preparation (Perkin Elmer), homogenised in assay buffer; the receptor stood in membranes, not intact cells; also called CGRP receptors; CGRP receptor
Assay: displacement of 0.24 nM [125I]-CGRP from human CGRP1 receptor membranes, filtration; Ki by Cheng-Prusoff; mean ± SD
Procedure: CGRP1 membrane was homogenized in the assay buffer (50 mM Tris-HCl pH 7.4, 5 mM MgCl₂, 0.5% BSA, 0.05% Tween20). […] After 1 h of incubation, at room temperature, samples were filtered, using a Tomtec cell harvester, through glass fiber filters that had been presoaked in 0.05% polyethyleneimine and washed with the cold Tris buffer (50 mM Tris-HCl pH7.4). Filters were counted on a betaplate reader (Wallac).

## VTHRLAGLLSRSGGMVKSNFVPTNVGSKAF (C-terminal amide, also called conventional CGRP 8-37) [human CGRP 8-37]
  Ki: 59.8 nM
